How the values were obtained:
Du145 cells [1] = assay: Apoptosis of Du145 cells, Annexin V-FITC/PI double staining-flow cytometry; assay type: cell-based, human; conditions: 20 nM, 48 h
Method: (§1) Du145 cells in logarithmic growth phase were seeded into 6-well plates with number of 3 × 10^5 cells per well. […] P16, TNF α and PBS (vehicle of peptide) were used as the controls.

Du145 cells [2] = assay: Cell cycle of Du145 cells, PI single staining-flow cytometry; assay type: cell-based, human; conditions: 20 nM, 48 hours
Method: as §1

Substance: TNF α: Recombinant human TNF α purchased from Sino Biological Inc.
- pro-apoptotic ability on Du145 cells (Du145 cells [1]): markedly weaker than RMP16 and P16
- G0/G1 phase arrest for Du145 cells (Du145 cells [2]): no apparent ability to induce G0/G1 phase arrest

From publication PMC4559766 (Scientific Reports, 2015)
